Laboratory results as given in US12234230B2, “Substituted benzyl-triazole compounds for Cbl-b inhibition, and further uses thereof” (Nurix Therapeutics, Inc., priority 2019, dated 2025).

Assays:
[1] = system: primary human total T-cells; assay: Primary human total T-cell activation (IL-2 secretion, CD25 surface staining), Biological Example 2; details: anti-CD3 and anti-CD28 co-stimulation, fold change over baseline; for CD25 staining CD3/CD28 0.3 μM: 0.3 μM inhibitor; for CD25 staining CD3/CD28 1 μM: 1 μM inhibitor
[2] = system: primary human total T-cells; assay: Primary human total T-cell activation (IL-2 secretion, CD25 surface staining), Biological Example 9; details: fold change over baseline, Table 9-1; for CD25 staining CD3/CD28 0.3 μM: 0.3 μM inhibitor; for CD25 staining CD3/CD28 0.3 μM / CD25 staining CD3/CD28 1 μM: anti-CD3 and anti-CD28 co-stimulation; for CD25 staining CD3/CD28 1 μM / CD25 staining CD3 1 μM: 1 μM inhibitor; for CD25 staining CD3 1 μM / CD25 staining CD3 3 μM: anti-CD3 stimulation alone; for CD25 staining CD3 3 μM: 3 μM inhibitor
[3] = system: primary human total T-cells; assay: Primary human total T-cell activation (IL-2 secretion, CD25 surface staining), Biological Example 12; details: fold change over baseline, Table 12-1; for CD25 staining CD3/CD28 0.3 μM: 0.3 μM inhibitor; for CD25 staining CD3/CD28 0.3 μM / CD25 staining CD3/CD28 1 μM: anti-CD3 and anti-CD28 co-stimulation; for CD25 staining CD3/CD28 1 μM / CD25 staining CD3 1 μM: 1 μM inhibitor; for CD25 staining CD3 1 μM / CD25 staining CD3 3 μM: anti-CD3 stimulation alone; for CD25 staining CD3 3 μM: 3 μM inhibitor

Structure (SMILES)	CD25 staining CD3/CD28 0.3 μM [1]	CD25 staining CD3/CD28 1 μM [1]	CD25 staining CD3/CD28 0.3 μM [2]	CD25 staining CD3/CD28 1 μM [2]	CD25 staining CD3 1 μM [2]	CD25 staining CD3 3 μM [2]	CD25 staining CD3/CD28 0.3 μM [3]	CD25 staining CD3/CD28 1 μM [3]	CD25 staining CD3 1 μM [3]	CD25 staining CD3 3 μM [3]
C[C@H]1CCCN(Cc2cc3c(c(C(F)(F)F)c2)CN(c2cccc([C@H](c4nncn4C)C4CCC4)c2)C3=O)C1 [Compound 3, 2-(3-((R)-cyclobutyl(4-methyl-4H-1,2,4-triazol-3-yl)methyl)phenyl)-6-(((S)-3-methylpiperidin-1-yl)methyl)-4-(trifluoromethyl)isoindolin-1-one]	A (A indicates >1.39 fold)	A (A indicates >1.39 fold)	A (A indicates >1.39 fold)	A (A indicates >1.39 fold)	A (A indicates >1.14 fold)	A (A indicates >1.14 fold)	A (A indicates >1.39 fold)	A (A indicates >1.39 fold)	A (A indicates >1.14 fold)	A (A indicates >1.14 fold)
C[C@@H]1CN(Cc2cc3c(c(C(F)(F)F)c2)CN(c2cccc([C@H](c4nncn4C)C4CCC4)c2)C3=O)CCO1 [Compound 17, 2-(3-((R)-cyclobutyl(4-methyl-4H-1,2,4-triazol-3-yl)methyl)phenyl)-6-(((R)-2-methylmorpholino)methyl)-4-(trifluoromethyl)isoindolin-1-one]			C (C indicates ≤1.24 fold)	C (C indicates ≤1.24 fold)	A (A indicates >1.14 fold)		C (C indicates ≤1.24 fold)	C (C indicates ≤1.24 fold)	A (A indicates >1.14 fold)	
C[C@H]1CCCN(Cc2cc3c(c(C(F)(F)F)c2)CN(c2cccc([C@]4(c5nncn5C)C[C@@H](C#N)C4)c2)C3=O)C1 [Compound 38, (1R,3s)-3-(4-methyl-4H-1,2,4-triazol-3-yl)-3-(3-(6-(((S)-3-methylpiperidin-1-yl)methyl)-1-oxo-4-(trifluoromethyl)isoindolin-2-yl)phenyl)cyclobutane-1-carbonitrile]	A (A indicates >1.39 fold)	A (A indicates >1.39 fold)	A (A indicates >1.39 fold)	A (A indicates >1.39 fold)	A (A indicates >1.14 fold)	A (A indicates >1.14 fold)	A (A indicates >1.39 fold)	A (A indicates >1.39 fold)	A (A indicates >1.14 fold)	A (A indicates >1.14 fold)
C[C@H]1CCCN(Cc2cc3c(c(C(F)(F)F)c2)CN(c2cccc(C4(c5nncn5C)CC5(CC5)C4)c2)C3=O)C1 [Compound 42, 6-[[(3S)-3-methyl-1-piperidyl]methyl]-2-[3-[5-(4-methyl-1,2,4-triazol-3-yl)spiro[2.3]hexan-5-yl]phenyl]-4-(trifluoromethyl)isoindolin-1-one]			A (A indicates >1.39 fold)	A (A indicates >1.39 fold)	A (A indicates >1.14 fold)	A (A indicates >1.14 fold)	A (A indicates >1.39 fold)	A (A indicates >1.39 fold)	A (A indicates >1.14 fold)	A (A indicates >1.14 fold)
C[C@H]1CCCN(Cc2cc3c(c(C(F)(F)F)c2)CN(c2cccc([C@]4(c5nncn5C)C[C@H](CC#N)C4)c2)C3=O)C1 [Compound 50, 2-((1S,3r)-3-(4-methyl-4H-1,2,4-triazol-3-yl)-3-(3-(6-(((S)-3-methylpiperidin-1-yl)methyl)-1-oxo-4-(trifluoromethyl)isoindolin-2-yl)phenyl)cyclobutyl)acetonitrile]	A (A indicates >1.39 fold)	A (A indicates >1.39 fold)								
C[C@@H]1CN(Cc2cc3c(c(C(F)(F)F)c2)CN(c2cccc(C4(c5nncn5C)CC(F)(F)C4)c2)C3=O)CCC1(F)F [Compound 52, 2-{3-[3,3-difluoro-1-(4-methyl-1,2,4-triazol-3-yl)cyclobutyl]phenyl}-6-{[(3R)-4,4-difluoro-3-methylpiperidin-1-yl]methyl}-4-(trifluoromethyl)-3H-isoindol-1-one]	A (A indicates >1.39 fold)	A (A indicates >1.39 fold)								
C[C@@H]1CN(Cc2cc3c(c(C(F)(F)F)c2)CN(c2cccc(C4(c5nncn5C)CC(F)(F)C4)c2)C3=O)CCO1 [Compound 53, 2-{3-[3,3-difluoro-1-(4-methyl-1,2,4-triazol-3-yl)cyclobutyl]phenyl}-6-{[(2R)-2-methylmorpholin-4-yl]methyl}-4-(trifluoromethyl)-3H-isoindol-1-one]	A (A indicates >1.39 fold)	A (A indicates >1.39 fold)								
